By UniProt entry, the sequences of proteins in these tests, tags left out. Where a name states a change or a piece, a line headed by the entry shows the natural chain unless it says otherwise.
UniProt P43490: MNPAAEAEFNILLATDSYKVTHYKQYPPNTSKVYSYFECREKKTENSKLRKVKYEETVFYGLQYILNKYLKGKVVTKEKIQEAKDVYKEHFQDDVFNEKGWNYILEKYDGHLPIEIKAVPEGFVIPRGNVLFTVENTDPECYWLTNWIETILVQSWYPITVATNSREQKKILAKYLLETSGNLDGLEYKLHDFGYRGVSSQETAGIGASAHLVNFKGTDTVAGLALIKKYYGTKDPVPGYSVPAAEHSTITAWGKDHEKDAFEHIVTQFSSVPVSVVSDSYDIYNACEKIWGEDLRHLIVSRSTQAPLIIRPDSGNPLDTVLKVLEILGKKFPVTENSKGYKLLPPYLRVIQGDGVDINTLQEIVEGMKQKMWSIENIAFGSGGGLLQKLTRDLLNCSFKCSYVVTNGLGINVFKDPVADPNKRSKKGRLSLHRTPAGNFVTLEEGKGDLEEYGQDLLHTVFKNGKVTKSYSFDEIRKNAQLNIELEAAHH

According to patent US20230348369A1 (Cytokinetics, Inc., priority 2020, published 2023):

Molecular target: human NAMPT (Homo sapiens, UniProt P43490)
Assay: Human recombinant enzyme assay (NMN fluorescence biochemical assay, activation of NAMPT)
Conditions: Table A, NMN formation, 60 min
Experimental: Compounds described herein were assayed for their ability to stimulate the synthesis of nicotinamide mononucleotide (NMN) by the enzyme NAMPT. The human recombinant enzyme assay measures the activation of the enzyme activity by compounds using recombinant enzyme and substrates in a buffered cell-free system. The assay conditions closely mimic cellular environments. Dose responses were measured using an assay to detect the formation of nicotinamide mono-nucleotide. All experiments were performed in the 384-well format. Generally, 0.5 μL of DMSO containing varying concentrations of the test compound was mixed with 10 μL of the enzyme reagent solution. Enzyme reactions were initiated with the addition of 10 μL of a solution containing the substrates. The final assay conditions were as follows: 6 nM human NAMPT, 2.5 mM ATP, 20 μM PRPP and 150 μM nicotinamide in 50 mM HEPES, pH 7.2, 1 mM DTT, 1 mM CHAPS 50 mM NaCl, 100 mM MgCl2. Following an incubation of 60 min at ambient temperature, 10 μL of 20% acetophenone in DMSO was added, followed by 10 μL of 2 M KOH and 40 μL of formic acid. The plates were read for fluorescence (Excitation/Emission=355 nm/460 nm) using an EnVision plate reader after 40 mins of incubation at ambient temperature. The potency measurements for compounds, are quantified and represented as AC1.4 (the concentration of compounds that generates 40% higher activity over basal) and EC50 (concentration of the compound that gives half-maximal activation).

Work on `NC(=O)c1ccc(CNC(=O)NC2CC(c3ccccc3)C2)cc1` (stereo not drawn) [Compound 4, 4-((3-(3-phenylcyclobutyl)ureido)methyl)benzamide] yielded an EC50 of 28.5 µM.

`COc1ccc(CNC(=O)NC2CC3(C2)CC(c2nc(-c4ccccc4)co2)C3)cc1` (stereo not drawn) [Compound 326, 1-(4-methoxybenzyl)-3-(6-(4-phenyloxazol-2-yl)spiro[3.3]heptan-2-yl)urea] showed an EC50 of 2.9 µM.

Work on `O=C(NCc1ccc(Cl)cc1)N[C@H]1C[C@]2(CCN(C(=O)N3CCC(N4CCCCC4)CC3)C2)C1` [Compound 354, 1-((2r,4s)-6-([1,4′-bipiperidine]-1′-carbonyl)-6-azaspiro[3.4]octan-2-yl)-3-(4-chlorobenzyl)urea] yielded an EC50 of 10.8 µM.
